Reference: PMC6624297 (Cell Death & Disease, 2019)

Amino acid sequences for entries named in this document (tags omitted). A change or cut given only in a name is not applied to a line headed by its entry.
UniProt P04818: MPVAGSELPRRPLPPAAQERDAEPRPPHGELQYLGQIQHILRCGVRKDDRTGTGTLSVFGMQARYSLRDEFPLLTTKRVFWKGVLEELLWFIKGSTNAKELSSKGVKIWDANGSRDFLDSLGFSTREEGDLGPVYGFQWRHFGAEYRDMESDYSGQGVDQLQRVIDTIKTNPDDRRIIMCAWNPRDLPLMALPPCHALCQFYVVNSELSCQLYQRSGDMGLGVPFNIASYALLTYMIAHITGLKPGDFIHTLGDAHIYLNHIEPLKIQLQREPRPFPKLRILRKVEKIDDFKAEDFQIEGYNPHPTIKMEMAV

Biological target: T1, human TS (hTS) (Homo sapiens, UniProt P04818)
T1 construct: purchased ProSpec-Tany
Experiment: Thymidylate synthase (TS) spectrophotometric assay
Type: biochemical

Nc1nc2[nH]cc(CCc3ccc(C(=O)N[C@@H](CCC(=O)O)C(=O)O)cc3)c2c(=O)[nH]1 [PTX, pemetrexed, reference compound] gave an IC50 of 2710 nM.
